Assays:
[1] = tested on: HiBit-FKBP12 F36V-KRAS G12C; experiment: Dual reporter line simultaneous degradation, Nano-Glo HiBit lytic assay at 7 h
[2] = target: T1, BRD4BD1L94V-EGFP (Homo sapiens, UniProt O60885, L94V); experiment: Cellular degradation EGFP/mCherry reporter assay (Acumen) in Flp293T cells; details: for DC50: read-out: DC50,6h
[3] = target: T1, BRD4BD1L94V-EGFP; experiment: Dual reporter line simultaneous degradation, Acumen EGFP/mCherry read at 5 h; type: cell-based

| SMILES | degradation of BRD4BD1L94V [2] | DC50 [2] | Fold selectivity BRD4 BD1/BD1 L94V [2] | also measured |
| --- | --- | --- | --- | --- |
| COc1ccc2c(c1)C(c1ccc(Cl)cc1)=N[C@@H]([C@@H](C)C(=O)NCCCCCNC(=O)COc1cccc3c1C(=O)N(C1CCC(=O)NC1=O)C3=O)c1nnc(C)n1-2 (stereo partly drawn) [Compound 1, (2R)-2-((4S)-6-(4-chlorophenyl)-8-methoxy-1-methyl-4H-benzo[f][1,2,4]triazolo [4,3-a][1,4]diazepin-4-yl)-N-(5-(2-((2-(2,6-dioxopiperidin-3-yl)-1,3-dioxoisoindolin-4-yl)oxy)acetamido)pentyl)propanamide] | able to potently degrade | 10 nM |  | cross-degradation of the HiBit-FKBP12 F36V-KRAS G12C reporter [1]: did not show cross-degradation of the reporters; degradation of BRD4BD1L94V-EGFP, effect of addition of dTAG^v-1 ([3]; addition of 100 nM dTAG^v-1, more apparent with 1 μM): enhanced; degradation of BRD4BD1L94V-EGFP, effect of co-treatment with dTAG13 ([3]; presence or absence of dTAG13 at 1 μM, 5 h): only marginally affecting; degradation of BRD4BD1L94V-EGFP, effect of dTAG^v-1-neg ([3]; with degradation-inactive negative control dTAG^v-1-neg): The same effect was also observed |
| CC[C@H](C(=O)N1CCCC[C@H]1C(=O)O[C@H](CCc1ccc(OC)c(OC)c1)c1ccccc1OCC(=O)NCCCCCCOc1cccc2c1C(=O)N(C1CCC(=O)NC1=O)C2=O)c1cc(OC)c(OC)c(OC)c1 (some centres unmarked) [dTAG13, reference compound] |  |  |  | degradation of HiBit-FKBP12 F36V-KRAS G12C fusion, effect of co-treatment with bifunctional compound 1 ([1]; presence of 1 μM of bifunctional compound 1): had no effect; cross-degradation of the BRD4BD1L94V-EGFP reporter ([3]; 5 h): did not show cross-degradation of the reporters |
| COc1ccc2c(c1)C(c1ccc(Cl)cc1)=N[C@@H]([C@@H](C)C(=O)NCCOCCOCCNC(=O)COc1cccc3c1C(=O)N(C1CCC(=O)NC1=O)C3=O)c1nnc(C)n1-2 (stereo partly drawn) [Compound 5, (2R)-2-((4S)-6-(4-chlorophenyl)-8-methoxy-1-methyl-4H-benzo[f][1,2,4]triazolo [4,3-α][1,4]diazepin-4-yl)-N-(2-(2-(2-(2-((2-(2,6-dioxopiperidin-3-yl)-1,3-dioxoisoindolin-4-yl)oxy)acetamido)ethoxy)ethoxy)ethyl) propanamide] | able to potently degrade | 40 ± 10 nM |  | dTAG BRD4BD1 L94V degraded [2]: ~75% |
| COc1ccc2c(c1)C(c1ccc(Cl)cc1)=N[C@@H]([C@@H](C)C(=O)NCCOCCNC(=O)COc1cccc3c1C(=O)N(C1CCC(=O)NC1=O)C3=O)c1nnc(C)n1-2 (stereo partly drawn) [Compound 4, (2R)-2-((4S)-6-(4-chlorophenyl)-8-methoxy-1-methyl-4H-benzo[f][1,2,4]triazolo[4,3-α][1,4]diazepin-4-yl)-N-(2-(2-(2-((2-(2,6-dioxopiperidin-3-yl)-1,3-dioxoisoindolin-4-yl)oxy)acetamido)ethoxy)ethyl)propanamide] |  | 112 ± 20 nM | >89 fold |  |
| COc1ccc2c(c1)C(c1ccc(Cl)cc1)=N[C@@H]([C@@H](C)C(=O)NCCCCCCCNC(=O)COc1cccc3c1C(=O)N(C1CCC(=O)NC1=O)C3=O)c1nnc(C)n1-2 (stereo partly drawn) [Compound 2, (2R)-2-((4S)-6-(4-chlorophenyl)-8-methoxy-1-methyl-4H-benzo[f][1,2,4]triazolo[4,3-a][1,4]diazepin-4-yl)-N-(7-(2-((2-(2,6-dioxopiperidin-3-yl)-1,3-dioxoisoindolin-4-yl)oxy)acetamido)heptyl)propanamide] |  | 6.1 ± 0.9 nM | >1,600 fold |  |
| COc1ccc2c(c1)C(c1ccc(Cl)cc1)=N[C@@H]([C@@H](C)C(=O)NCCCCCCCCCNC(=O)COc1cccc3c1C(=O)N(C1CCC(=O)NC1=O)C3=O)c1nnc(C)n1-2 (stereo partly drawn) [Compound 3, (2R)-2-((4S)-6-(4-chlorophenyl)-8-methoxy-1-methyl-4H-benzo[f][1,2,4]triazolo[4,3-α][1,4]diazepin-4-yl)-N-(9-(2-((2-(2,6-dioxopiperidin-3-yl)-1,3-dioxoisoindolin-4-yl)oxy)acetamido)nonyl)propanamide] |  | 4 ± 1 nM | 460 fold |  |

— patent US20230234957A1, “PROTEIN TAG TO INDUCE LIGAND DEPENDENT DEGRADATION OF PROTEIN/PROTEIN-FUSIONS” (DANA-FARBER CANCER INSTITUTE, INC., priority 2020, published 2023)
